Results on two proteins are retold here after patent publication US20030077798.

The data set deals with prephosphorylated SGSG-linked CREB peptide.

B1: truncated GSK3β polypeptide 557 (protein)
chain: MEYMPMEGGGMSGRPRTTSFAESCKPVQQPSAFGSMKVSRDKDGSKVTTVVATPGQGPDRPQEVSYTDTKVIGNGSFGVVYQAKLCDSGELVAIKKVLQDKRFKNRELQIMRKLDHCNIVRLRYFFYSSGEKKDEVYLNLVLDYVPETVYRVARHYSRAKQTLPVIYVKLYMYQLFRSLAYIHSFGICHRDIKPQNLLLDPDTAVLKLCDFGSAKQLVRGEPNVSYICSRYYRAPELIFGATDYTSSIDVWSAGCVLAELLLGQPIFPGDSGVDQLVEIIKVLGTPTREQIREMNPNYTEFKFPQIKAHPWTKVFRPRTPPEAIALCSRLLEYTPTARLTPLEACAHSFFDELRDPNVKHPNGRDTPALFNFTTQELSSNPPLATILIPPHARI
Take B1: the Mean Specific Activity cpm/µg is 4.3e+07 cpm/µg.

B2: GSK3β polypeptide 524 (protein)
chain: EYMPMEGGGMSGRPRTTSFAESCKPVQQPSAFGSMKVSRDKDGSKVTTVVATPGQGPDRPQEVSYTDTKVIGNGSFGVVYQAKLCDSGELVAIKKVLQDKRFKNRELQIMRKLDHCNIVRLRYFFYSSGEKKDEVYLNLVLDYVPETVYRVARHYSRAKQTLPVIYVKLYMYQLFRSLAYIHSFGICHRDIKPQNLLLDPDTAVLKLCDFGSAKQLVRGEPNVSYICSRYYRAPELIFGATDYTSSIDVWSAGCVLAELLLGQPIFPGDSGVDQLVEIIKVLGTPTREQIREMNPNYTEFKFPQIKAHPWTKVFRPRTPPEAIALCSRLLEYTPTARLTPLEACAHSFFDELRDPNVKHPNGRDTPALFNFTTQELSSNPPLATILIPPHARIQAAASTPTNATAASDANTGDRGQTNNAASASASNST
B2 displayed a Mean Specific Activity cpm/µg of 2.2e+07 cpm/µg.
